The numbers were not newly measured in PMC9781958, “Next-Generation Heterocyclic Electrophiles as Small-Molecule Covalent MurA Inhibitors” (Pharmaceuticals, 2022), which cites them from elsewhere.

By UniProt entry, the sequences of proteins in these tests, tags left out.
UniProt P0A749, whole entry: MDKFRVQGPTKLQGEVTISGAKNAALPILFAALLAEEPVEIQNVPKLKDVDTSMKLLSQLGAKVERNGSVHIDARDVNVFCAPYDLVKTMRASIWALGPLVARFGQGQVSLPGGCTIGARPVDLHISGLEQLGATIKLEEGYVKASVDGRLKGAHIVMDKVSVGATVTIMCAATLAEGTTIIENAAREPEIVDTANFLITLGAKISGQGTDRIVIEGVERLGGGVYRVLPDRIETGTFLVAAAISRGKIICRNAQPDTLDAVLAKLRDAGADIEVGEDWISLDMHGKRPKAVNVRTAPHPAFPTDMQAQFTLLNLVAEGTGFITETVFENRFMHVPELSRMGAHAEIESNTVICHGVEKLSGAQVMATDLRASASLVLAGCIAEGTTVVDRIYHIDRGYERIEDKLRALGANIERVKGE

SMILES strings stand for the structures.

Broadly, the IC50 is the concentration that inhibits the measured activity by half.

In the data set the target is E. coli MurA (UDP-N-acetylglucosamine 1-carboxyvinyltransferase, EC:2.5.1.7) (Escherichia coli, UniProt P0A749). The note with it: cited from earlier work.
With `C#Cc1ccncc1`, the IC50 was 408 µM.
Consider `Brc1cncs1`, for which the IC50 is 77 µM.
On to `Ic1ncccn1`, for which the 50% inhibitory concentration (IC50) was 309 µM.
On to `Ic1ccncc1`, for which the IC50 is 70 µM.
